Test results: article doi:10.1101/2022.05.05.490751

Molecular target: m10
Assay: SPR

Question: Which Kd does the source give for Soluble A6 TCR here?
Answer: 2000 nM
